Experimental data from PubChem BioAssay AID1242 (PCMD, 2008).
This is a selection; strong and weak results do not stand in their true shares. Calls of active or inactive are those of the source.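 How the source made its calls: active means inhibition above 30.3% in the primary screen of four-compound pools, then above 30% when the compound was retested; inconclusive means passed the primary limit but could not be retested; inactive means the rest.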

experiment: clotrimazole potentiators killing C. albicans biofilm, primary screen, 4-compound mixtures (AID 1242);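 further: compounds exposed to preformed 24 h biofilms for 48 h; 0% = untreated biofilm control and 100% = clotrimazole plus chlorhexidine kill blank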; conditions: C. albicans biofilm persisters + clotrimazole, fluorescence viability; primary screen in compound mixtures of four per well; at 7.6 µM; active compounds read high

Row | Compound | inhibition
1 | CP(=O)(Nc1ccc(SC(F)(F)F)cc1)Oc1ccc(Cl)cc1 (stereo unspecified) | inactive: 18.1%
2 | Cc1cc(C)cc(OP(C)(=O)Nc2ccc(SC(F)(F)F)cc2)c1 (stereo unspecified) | inactive: 5.76%
3 | CCc1ccc(OP(C)(=O)N2CCN(c3ccc([N+](=O)[O-])cc3)CC2)cc1 (stereo unspecified) | inactive: 23.4%
4 | CCOC(=O)c1ccc(NC(=O)C(C)(CCl)SC)cc1 (stereo unspecified) | inactive: 12.1%
5 | CCOC(=O)c1ccc(NP(C)(=O)Oc2ccc(OC)cc2)cc1 (stereo unspecified) | inactive: -0.06%
6 | CCC(C)N(CC(C)C)C(=S)SC(NC(C)=O)C(Cl)(Cl)Cl (stereo unspecified) | inactive: 7.55%
7 | CCOC(=O)Nc1ccc([As](=O)(O)O)c(O)c1 | inactive: 18.5%
8 | Cc1cc(SC(NC(=O)c2ccccc2)C(Cl)(Cl)Cl)nc(C(C)C)n1 (stereo unspecified) | inactive: 2.77%
9 | CCOC(=O)Nc1cccc([As](=O)(O)O)c1 | inactive: 21%
10 | O=[N+]([O-])c1ccc(Nc2ccc(Oc3ccc([N+](=O)[O-])cc3[N+](=O)[O-])cc2)c([N+](=O)[O-])c1 | inactive: 4.35%
11 | CP(=O)(Nc1ccccc1Br)Oc1ccccc1 (stereo unspecified) | inactive: 20.9%
12 | COc1ccccc1OP(C)(=O)Nc1ccccc1 (stereo unspecified) | inactive: 12.8%
13 | O=P(Nc1ccccn1)(c1cccc2ccccc12)c1cccc2ccccc12 | inactive: -17.7%
14 | Cc1cc(SC(NC=O)C(Cl)(Cl)Cl)ncn1 (stereo unspecified) | inactive: 19%
15 | COc1cc(C2NCCC3(OCCO3)C2(C)C)cc(OC)c1OC.O=[N+]([O-])c1cc([N+](=O)[O-])c(O)c([N+](=O)[O-])c1 (stereo unspecified) | inactive: 12.3%
16 | CC1CCC(C(C)C)C(OP(=O)(Nc2ccccn2)c2ccccc2)C1 (stereo unspecified) | inactive: 4.27%
17 | O=C(/C=C/c1ccccc1)OC1CN2CCC1CC2 (stereo unspecified) | inactive: 17%
18 | CCOC(=O)C(CC)C1=NC(C)(C)Cc2ccccc21.O=[N+]([O-])c1cc([N+](=O)[O-])c(O)c([N+](=O)[O-])c1 (stereo unspecified) | inactive: 24.4%
19 | CN(C)C1(CNC(=O)c2ccc(S(C)(=O)=O)cc2)CCCCC1 | inactive: 1.82%
20 | O=[N+]([O-])c1cc([N+](=O)[O-])c(Nc2nnnn2CCO)c([N+](=O)[O-])c1 | inactive: 20.2%
21 | CN1CCCCC1COC(=O)C1(O)c2ccccc2CCc2ccccc21 (stereo unspecified) | inactive: 5%
22 | O=[As](O)(c1cccs1)c1cccs1 | inactive: 18.8%
23 | CP(=O)(Nc1ccc(SC(F)(F)F)cc1)Oc1ccccc1 (stereo unspecified) | inactive: 10.4%
24 | Nc1cccc([As](=O)(O)c2ccccc2)c1 | inactive: 10.3%
25 | CCOP(=O)(Nc1ccc(C)cn1)OCC | inactive: 23.6%
26 | O=[N+]([O-])c1cc([N+](=O)[O-])c(-n2nnc3ccccc32)c([N+](=O)[O-])c1 | inactive: 5.12%
